Measurements from US10117890B2, “Methods and compositions for treating pain” (Academia Sinica, priority 2012, dated 2018).
pEC50: −log10 of the molar value.

Tested on: muscle nociceptors (ASIC3-positive muscle afferent DRG neurons expressing ISP-O)
Assay: Whole-cell patch-clamp recording of outward currents in muscle afferent DRG neurons
Type: cell-based, mice
Conditions: peak whole-cell current; 0.1, 1, 3 and 10 μM; n=27; read-out: EC50 of SP-induced outward current (ISP-O)
Protocol: The digested DRG neurons were washed with fetal calf serum (FCS)-free DMEM or DMEM containing 10% FCS during each treatment. Fully digested DRGs were triturated and plated on poly-L-lysine-coated cover slides. Cell cultures were maintained in a 5% CO2 incubator at 37° C.
Whole-cell patch-clamp recordings of muscle-afferent neurons involved use of Axopatch MultiClamp 700B (Axon Instruments). Neurons with membrane potential >−40 mV were discarded. The bridge was balanced in current-clamp recording, and the series resistance was compensated 70% in voltage-clamp recording with […] 700B compensation circuitry. All experiments were performed at room temperature (21-25° C.) and completed within 30 hr post-seeding. Unless specifically mentioned, the patch pipettes were prepared in 1-5 MΩ and filled with internal solution containing (in mM) 100 KCl, 2 Nae-ATP, 0.3 Na3-GTP, 10 EGTA, 5 MgCl2, and 40 HEPES, adjusted to pH 7.4 with KOH. Recording cells were superfused in artificial cerebrospinal fluid (ACSF) by control with gravitational force. The ACSF contained (in mM) 130 NaCl, 5 KCl, 1 MgCl2, 2 CaCl2, 10 glucose, and 20 HEPES, adjusted to pH 7.4 with NaOH. Osmolarity was adjusted to 300 mOsm. The acidic ACSF was titrated to pH 6.8 by […]. […] If not specifically mentioned, drugs listed above were from Sigma Chemical (St. Louis, Mo.). […]

Work on `CSCC[C@H](NC(=O)[C@H](CC(C)C)NC(=O)CNC(=O)[C@H](Cc1ccccc1)NC(=O)[C@H](Cc1ccccc1)NC(=O)[C@H](CCC(N)=O)NC(=O)[C@H](CCC(N)=O)NC(=O)[C@@H]1CCCN1C(=O)[C@H](CCCCN)NC(=O)[C@@H]1CCCN1C(=O)[C@@H](N)CCCNC(=N)N)C(N)=O` [SP, reference compound] yielded a pEC50 of 5.59.
